The list shows a part of the results, in another mix than the full data.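 Assay: single dose, 48 h. Readout: percent growth (0 = no net growth; negative = cell death). Active: <10.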 Activity calls are given as the source filed them.
Experiments:
Assay in all cases: NCI-60 one-dose screen, 48 h (100 = growth as untreated, 0 = no growth, -100 = all killed)
Conditions in all cases: 10 µM unless noted
MOLT-4 leukemia = system: MOLT-4 leukemia
RPMI-8226 leukemia = system: RPMI-8226 leukemia
OVCAR-8 ovarian = system: OVCAR-8 ovarian
OVCAR-5 ovarian = system: OVCAR-5 ovarian
OVCAR-4 ovarian = system: OVCAR-4 ovarian
SK-OV-3 ovarian = system: SK-OV-3 ovarian
OVCAR-3 ovarian = system: OVCAR-3 ovarian
HS 578T breast = system: HS 578T breast
NCI/ADR-RES ovarian = system: NCI/ADR-RES ovarian
T-47D breast = system: T-47D breast
BT-549 breast = system: BT-549 breast
MDA-MB-435 melanoma = system: MDA-MB-435 melanoma
SW-620 colon = system: SW-620 colon
MCF7 breast = system: MCF7 breast
HCT-116 colon = system: HCT-116 colon
KM12 colon = system: KM12 colon
IGROV1 ovarian = system: IGROV1 ovarian
HCC-2998 colon = system: HCC-2998 colon
SR leukemia = system: SR leukemia

Measured: growth

CCCC1OP(=O)(Nc2ccccc2)OCC1CC (configuration not stated)
inactive: MOLT-4 leukemia 98.7% | RPMI-8226 leukemia 104% | OVCAR-8 ovarian 98.5% | OVCAR-5 ovarian 101% | OVCAR-4 ovarian 107% | SK-OV-3 ovarian 106% | OVCAR-3 ovarian 106% | HS 578T breast 101% | NCI/ADR-RES ovarian 104% | T-47D breast 109% | BT-549 breast 103% | MDA-MB-435 melanoma 110% | SW-620 colon 102% | MCF7 breast 101% | HCT-116 colon 102% | KM12 colon 109%

COC(=O)C1(C)COP(=O)(NCc2ccccc2)OC1 (configuration not stated)
inactive: MOLT-4 leukemia 80.9% | RPMI-8226 leukemia 120% | OVCAR-8 ovarian 102% | OVCAR-5 ovarian 105% | OVCAR-4 ovarian 110% | SK-OV-3 ovarian 92.2% | IGROV1 ovarian 110% | OVCAR-3 ovarian 109% | HS 578T breast 107% | NCI/ADR-RES ovarian 107% | T-47D breast 99.9% | BT-549 breast 94.9% | MDA-MB-435 melanoma 106% | SW-620 colon 108% | MCF7 breast 99.5% | HCT-116 colon 102% | HCC-2998 colon 98.7% | KM12 colon 101%

Cc1ccc(OP(=O)(Nc2ccc([N+](=O)[O-])cn2)Oc2ccc(C)cc2)cc1
inactive: OVCAR-8 ovarian 84.7% | OVCAR-5 ovarian 114% | OVCAR-4 ovarian 98.9% | SK-OV-3 ovarian 102% | IGROV1 ovarian 85.2% | HS 578T breast 99.3% | NCI/ADR-RES ovarian 96.6% | T-47D breast 97.6% | BT-549 breast 113% | MDA-MB-435 melanoma 109% | SW-620 colon 105% | MCF7 breast 89.5% | HCT-116 colon 96.4% | HCC-2998 colon 106% | KM12 colon 109%

Nc1cccc2ccc([As](=O)(O)O)cc12
inactive: MOLT-4 leukemia 103% | RPMI-8226 leukemia 105% | OVCAR-8 ovarian 103% | OVCAR-5 ovarian 102% | OVCAR-4 ovarian 90.9% | SK-OV-3 ovarian 114% | IGROV1 ovarian 108% | OVCAR-3 ovarian 114% | NCI/ADR-RES ovarian 104% | T-47D breast 103% | BT-549 breast 107% | MDA-MB-435 melanoma 116% | SW-620 colon 95.9% | MCF7 breast 94.2% | HCT-116 colon 102% | HCC-2998 colon 97.5% | KM12 colon 106%

CN(C)P(=O)(Nc1ccccn1)N(C)C
inactive: MOLT-4 leukemia 105% | RPMI-8226 leukemia 103% | OVCAR-8 ovarian 103% | OVCAR-5 ovarian 110% | OVCAR-4 ovarian 107% | SK-OV-3 ovarian 107% | IGROV1 ovarian 117% | OVCAR-3 ovarian 113% | HS 578T breast 124% | NCI/ADR-RES ovarian 109% | T-47D breast 103% | BT-549 breast 104% | MDA-MB-435 melanoma 103% | SW-620 colon 106% | MCF7 breast 97.9% | HCT-116 colon 108% | HCC-2998 colon 101% | KM12 colon 111%

ClP1(Cl)=NP(Cl)(Cl)=NP(c2ccccc2)(c2ccccc2)=N1
inactive: MOLT-4 leukemia 76.3% | SR leukemia 108% | OVCAR-8 ovarian 97.6% | OVCAR-5 ovarian 109% | OVCAR-4 ovarian 102% | SK-OV-3 ovarian 89.4% | IGROV1 ovarian 112% | OVCAR-3 ovarian 117% | HS 578T breast 103% | NCI/ADR-RES ovarian 97.1% | T-47D breast 57.3% | BT-549 breast 82.9% | MDA-MB-435 melanoma 104% | SW-620 colon 102% | MCF7 breast 98.6% | HCT-116 colon 81.8% | HCC-2998 colon 103% | KM12 colon 103%

COC(=O)C1=C(C)O[P@](=O)(OC)CCC1c1ccccc1 (some centres not stated)
inactive: MOLT-4 leukemia 90.4% | SR leukemia 102% | OVCAR-8 ovarian 91.9% | OVCAR-5 ovarian 87.8% | OVCAR-4 ovarian 105% | SK-OV-3 ovarian 103% | IGROV1 ovarian 99.1% | OVCAR-3 ovarian 129% | HS 578T breast 96.9% | T-47D breast 102% | BT-549 breast 104% | MDA-MB-435 melanoma 113% | SW-620 colon 99.6% | MCF7 breast 91.7% | HCT-116 colon 109% | HCC-2998 colon 95.6% | KM12 colon 111%

COC(=O)C(=[N+]=[N-])C(=O)c1cc([N+](=O)[O-])cc([N+](=O)[O-])c1
inactive: RPMI-8226 leukemia 101% | OVCAR-8 ovarian 105% | OVCAR-5 ovarian 113% | OVCAR-4 ovarian 107% | SK-OV-3 ovarian 113% | IGROV1 ovarian 111% | OVCAR-3 ovarian 115% | HS 578T breast 107% | NCI/ADR-RES ovarian 118% | T-47D breast 115% | BT-549 breast 110% | MDA-MB-435 melanoma 117% | SW-620 colon 110% | MCF7 breast 103% | HCT-116 colon 104% | HCC-2998 colon 115% | KM12 colon 106%

O=P1(Nc2ncccn2)OC(CCl)=NC1c1ccc(C2N=C(CCl)OP2(=O)Nc2ncccn2)cc1 (configuration not stated)
inactive: MCF7 breast 95.5%

Reference: PubChem BioAssay (NCI)
